Earlier results as cited in patent publication US9782396B2.
Only a part of the results on these compounds is given; other tests are left out.

Details: stated as basis of the washout period

CCC(=O)N(c1ccccc1)C1(COC)CCN(CCn2nnn(CC)c2=O)CC1
half-life of alfentanil: approximately 1.5 hours
